## Ab-14 heavy chain CDR variants: yeast mating affinities

From the AlphaSeq antibody data of Li et al. 2023 (doi:10.1038/s41467-023-39022-2), copy in the FLAb collection.

Target peptide (SARS-CoV-2 spike, HR2 region): PDVDLGDISGINAS

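The parent was found by panning a naive human phage display library on the peptide. Designed CDR sequences, proposed from the first random library and measured here. Several design methods are mixed in this list. In AlphaSeq, yeast of one mating type display the scFv and yeast of the other type display the target. The frequency of each diploid, read from paired DNA barcodes, reflects how well the two displayed proteins bind. A regression on co-assayed BCL2-family reference pairs converts the normalised counts of each replicate to an apparent Kd. The assay was run in six technical replicates.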

Ab-14 is the parent antibody, in scFv form: VH, then three GGGGS repeats, then VL. The light chain is unchanged in all variants.
VH: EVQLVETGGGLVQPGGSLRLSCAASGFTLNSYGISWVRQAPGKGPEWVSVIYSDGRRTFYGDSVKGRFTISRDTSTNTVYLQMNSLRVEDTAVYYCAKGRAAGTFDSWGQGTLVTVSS
VL: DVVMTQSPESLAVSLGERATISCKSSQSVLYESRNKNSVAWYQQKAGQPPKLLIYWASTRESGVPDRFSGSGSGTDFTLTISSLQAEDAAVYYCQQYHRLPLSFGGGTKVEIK

Positions count from residue 1 of the parent VH; S31E puts E in place of S. Variants here have at most six changes. The read-out is the apparent dissociation constant on a log10 scale (nM): the lower, the stronger. The mean shown is taken over the replicates in which the pair was detected. A pair that was not seen in that replicate is written "ND"; this usually means weak binding, but a binder can also be missed. A sequence measured in both rounds can read differently, since the two assays cover different ranges.

For S31E+A101C+S107T, the assay gave 0.44, -0.14, -0.10, -0.16, -0.07, -0.21 (mean -0.04; controls 0 of 18). For T28S+G61I+R100K+A101V, the assay gave 0.82, 0.68, 0.89, 1.18, 1.80, 1.20 (mean 1.09; controls 0 of 18). With T28D+G103D+D106N the result was ND, ND, ND, ND, ND, 1.37 (controls 1 of 18). Variant R56K+G61S showed 1.56, 0.23, 0.77, 0.68, 0.31, 0.35 (mean 0.65; controls 0 of 18). Variant T28N+A101T+S107L showed 1.18, 1.20, 1.05, 1.35, 1.74, ND (mean 1.30; controls 0 of 18). With G26H+T28D+G61D+A101T the result was 0.47, 0.62, 0.06, 0.03, -0.26, 0.79 (mean 0.28; controls 1 of 18). With I51C+R57A+G61S+G99Y+A102G the result was ND, ND, ND, ND, ND, 1.94 (controls 1 of 18).

Variant T28S+G61D+R100Q showed 0.08, 0.07, 1.22, 0.29, -0.14, 0.25 (mean 0.30; controls 2 of 18). For T28Q+S31E+R56Q+A101T, the assay gave ND, 2.87, ND, ND, 3.91, 3.01 (mean 3.26; controls 0 of 18). For T28N+G61E+S63N+A101Q, the assay gave 2.51, 1.96, 2.88, ND, 2.30, 1.72 (mean 2.27; controls 0 of 18). With T28N+G61A+A101N the result was 1.65, 1.19, ND, 1.45, ND, 1.08 (mean 1.34; controls 0 of 18). For T28S+G61A+S63M+R100N, the assay gave 0.25, 1.67, 0.59, 0.88, 0.59, 1.11 (mean 0.85; controls 1 of 18). Variant G26E+G61A+A101E+S107T showed ND, ND, ND, ND, ND, ND (controls 0 of 18). Variant F27T+Y32F+G99H+A101E+G103V+T104L showed ND, ND, ND, ND, ND, ND (controls 0 of 18).

Variant N30D+S63G+A101T gave ND, 1.63, 1.09, 1.19, 0.63, 1.29 (mean 1.17; controls 1 of 18). With S31Q+Y32Q+S63E the result was ND, ND, ND, ND, ND, ND (controls 0 of 18). For T28Q+S31E+G61A+S107K, the assay gave 0.82, 0.88, 0.63, 0.45, 0.60, -0.05 (mean 0.56; controls 0 of 18). Variant T28Y+S31D+G61K+A101T showed 0.68, 0.74, 0.79, 0.86, 0.55, 0.77 (mean 0.73; controls 1 of 18). Variant T28G+S31E+R100H gave 1.03, 0.19, 0.48, 0.23, 0.10, 0.39 (mean 0.40; controls 0 of 18). Variant G61A+S63D+A101V+S107T showed 0.46, 0.28, 0.19, 0.12, 0.48, 0.30 (mean 0.31; controls 0 of 18). Variant G61S+A102G+G103V+S107T gave ND, ND, ND, ND, ND, ND (controls 0 of 18).

Variant S31D+D106S+S107K gave ND, ND, ND, ND, ND, ND (controls 0 of 18). For S31D+R100T+A102R+T104A+S107T, the assay gave 2.32, 2.18, ND, 2.26, 3.24, 3.13 (mean 2.63; controls 1 of 18). For T28S+G61A+R100H, the assay gave ND, ND, 1.34, 1.30, 0.50, ND (mean 1.05; controls 0 of 18). Variant T28H+G61K+A101T gave 2.47, 1.06, 1.03, ND, 2.28, 1.16 (mean 1.60; controls 2 of 18). With T28S+G61D+S63N+A101V the result was 0.31, 0.26, 0.26, 0.55, 0.56, 0.41 (mean 0.39; controls 0 of 18). Variant T28S+A101H gave 2.40, 1.35, 1.79, 1.80, 1.11, 2.56 (mean 1.84; controls 0 of 18). Variant G99A+R100Q+A101K gave 0.19, ND, 0.05, 0.01, 0.25, ND (mean 0.12; controls 0 of 18).

Variant T28S+G61A+R100Q+S107Q gave 1.22, 0.68, 1.02, 0.64, 1.17, 1.23 (mean 0.99; controls 0 of 18). For T28G+S53A+R100T, the assay gave 0.16, -0.31, -0.20, -0.53, -0.35, -0.11 (mean -0.22; controls 0 of 18). Variant S63E+R100Q+A101N+S107L showed 1.91, 2.44, ND, 1.88, 3.29, 1.85 (mean 2.27; controls 0 of 18). For T28S+S53A+R100Q+S107G, the assay gave 0.25, 0.81, 0.28, 0.61, 0.31, 0.48 (mean 0.46; controls 1 of 18). For G26K+T28S+G61E+A101T, the assay gave 2.76, 2.22, ND, 2.79, 2.16, 1.94 (mean 2.37; controls 0 of 18). With S31E+R56K+F59Q+G61N the result was ND, 1.45, 1.45, 2.60, ND, 2.36 (mean 1.96; controls 0 of 18). Variant G61A+S63H+R100E+S107K gave 0.19, ND, ND, -0.54, ND, ND (mean -0.18; controls 0 of 18).

Variant S31E+A101T+G103V+S107D gave ND, ND, ND, ND, ND, ND (controls 1 of 18). With T28Q+G61S+R100A the result was 0.04, 0.78, 0.54, -0.02, 0.21, -0.37 (mean 0.20; controls 0 of 18). For T28E+G61A+S63N+R100Q+A101T, the assay gave ND, 2.78, 1.77, 1.76, 1.08, 2.67 (mean 2.01; controls 0 of 18). With G26K+G61I+A101C+T104I the result was ND, ND, ND, ND, ND, ND (controls 0 of 18). For G61S+R100E+S107A, the assay gave 0.57, 0.47, 0.40, 0.56, 0.31, 0.63 (mean 0.49; controls 0 of 18). With S35H+S53A+R100E the result was 0.35, 0.21, -0.10, 0.24, 0.09, 0.69 (mean 0.24; controls 0 of 18). For N30D+G33H+F105A+D106L, the assay gave ND, ND, ND, ND, 2.40, ND (controls 1 of 18).

Variant G61S+R100L+A102G+S107V gave ND, 0.54, ND, 0.11, ND, 0.58 (mean 0.41; controls 0 of 18). Variant S53A+D106T+S107L gave ND, 1.41, ND, ND, ND, ND (controls 0 of 18).

For reference, 2 entries of the list once more:

changes	log10 Kd, replicates	log10 Kd (nM), mean	control signals
G61S+A102G+G103V+S107T	ND, ND, ND, ND, ND, ND	ND	0 of 18
S63E+R100Q+A101N+S107L	1.91, 2.44, ND, 1.88, 3.29, 1.85	2.27	0 of 18

As a blank, each scFv also met three strains without target: over all heavy chain designs, 1% of these pairings were detected, typically at 2.08 and seldom below 0.84. For each scFv, signals with the empty controls are counted beside the result. The authors averaged sequences with at least three values out of six and counted those with two or fewer as poor binders.